For one compound, Ki results are on record in patent US8959984B2, “Proteome-wide quantification of small molecule binding to cellular target proteins” (priority 2007, dated 2015).

Amino acid sequences for entries named in this document (tags omitted). A change or cut given only in a name is not applied to a line headed by its entry.
UniProt P67870, whole entry: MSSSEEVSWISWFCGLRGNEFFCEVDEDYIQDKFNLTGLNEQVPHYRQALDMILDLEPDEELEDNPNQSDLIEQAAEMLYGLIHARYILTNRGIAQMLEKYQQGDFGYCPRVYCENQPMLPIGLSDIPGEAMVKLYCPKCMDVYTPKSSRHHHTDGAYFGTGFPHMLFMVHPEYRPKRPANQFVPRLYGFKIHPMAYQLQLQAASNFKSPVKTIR
UniProt Q9UKI8: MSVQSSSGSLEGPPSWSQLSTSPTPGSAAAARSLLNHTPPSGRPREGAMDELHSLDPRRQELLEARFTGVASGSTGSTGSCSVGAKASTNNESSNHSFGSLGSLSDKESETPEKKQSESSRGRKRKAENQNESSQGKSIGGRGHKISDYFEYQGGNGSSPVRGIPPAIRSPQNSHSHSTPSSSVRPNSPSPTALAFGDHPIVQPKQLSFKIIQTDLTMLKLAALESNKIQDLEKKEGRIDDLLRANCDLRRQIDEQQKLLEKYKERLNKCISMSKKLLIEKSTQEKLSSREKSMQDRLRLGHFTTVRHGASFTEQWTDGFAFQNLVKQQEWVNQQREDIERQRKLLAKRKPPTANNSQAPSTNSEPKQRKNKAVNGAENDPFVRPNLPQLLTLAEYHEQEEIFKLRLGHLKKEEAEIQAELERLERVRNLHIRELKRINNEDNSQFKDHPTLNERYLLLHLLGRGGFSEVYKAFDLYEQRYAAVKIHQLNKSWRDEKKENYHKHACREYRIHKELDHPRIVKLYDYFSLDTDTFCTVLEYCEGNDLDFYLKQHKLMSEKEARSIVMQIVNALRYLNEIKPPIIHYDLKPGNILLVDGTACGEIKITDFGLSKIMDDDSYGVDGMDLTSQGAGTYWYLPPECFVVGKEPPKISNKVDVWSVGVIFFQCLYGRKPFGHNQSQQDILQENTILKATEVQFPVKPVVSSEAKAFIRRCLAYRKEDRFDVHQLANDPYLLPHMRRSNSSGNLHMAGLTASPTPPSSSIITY
UniProt Q15418, whole entry: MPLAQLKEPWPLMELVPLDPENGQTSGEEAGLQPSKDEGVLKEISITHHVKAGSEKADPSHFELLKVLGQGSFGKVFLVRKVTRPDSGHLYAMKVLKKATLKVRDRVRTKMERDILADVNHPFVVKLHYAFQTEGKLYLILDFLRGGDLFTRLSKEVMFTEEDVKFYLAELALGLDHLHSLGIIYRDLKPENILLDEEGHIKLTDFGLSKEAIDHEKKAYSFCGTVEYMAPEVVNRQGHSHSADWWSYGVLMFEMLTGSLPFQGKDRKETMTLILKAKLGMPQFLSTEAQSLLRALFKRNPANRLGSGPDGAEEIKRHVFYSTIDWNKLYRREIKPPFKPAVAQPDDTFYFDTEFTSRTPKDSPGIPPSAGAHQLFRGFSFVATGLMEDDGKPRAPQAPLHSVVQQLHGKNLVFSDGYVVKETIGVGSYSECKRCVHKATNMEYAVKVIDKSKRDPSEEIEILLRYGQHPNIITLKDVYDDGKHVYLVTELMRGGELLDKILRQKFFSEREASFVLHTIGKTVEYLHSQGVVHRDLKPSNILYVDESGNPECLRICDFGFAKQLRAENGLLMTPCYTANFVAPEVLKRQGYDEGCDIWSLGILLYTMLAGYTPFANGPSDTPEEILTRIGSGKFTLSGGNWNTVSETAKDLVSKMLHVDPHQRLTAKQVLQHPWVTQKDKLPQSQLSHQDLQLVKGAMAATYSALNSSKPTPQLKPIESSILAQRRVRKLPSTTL

Common to all, as to assay: Ki determination for immobilized VI16742: two consecutive incubations, control beads, ligand concentration and incubation time controls (Tables 7, 8)
Holding throughout (type): binding

In experiment [1] the target is cellular target proteins in HeLa cell lysate (Homo sapiens, UniProt P67870). Conditions: Ki (VI16742), CSNK2B IPI00640088.
Experiment [2] has as its target cellular target proteins in HeLa cell lysate (Homo sapiens, UniProt Q9UKI8). The note with it: Ki (VI16742), TLK1 IPI00333559.
Experiment [3] has as its target T1, cellular target proteins in HeLa cell lysate (Homo sapiens, UniProt Q9UHD2).
T1 sequence (Q9UHD2 1-729): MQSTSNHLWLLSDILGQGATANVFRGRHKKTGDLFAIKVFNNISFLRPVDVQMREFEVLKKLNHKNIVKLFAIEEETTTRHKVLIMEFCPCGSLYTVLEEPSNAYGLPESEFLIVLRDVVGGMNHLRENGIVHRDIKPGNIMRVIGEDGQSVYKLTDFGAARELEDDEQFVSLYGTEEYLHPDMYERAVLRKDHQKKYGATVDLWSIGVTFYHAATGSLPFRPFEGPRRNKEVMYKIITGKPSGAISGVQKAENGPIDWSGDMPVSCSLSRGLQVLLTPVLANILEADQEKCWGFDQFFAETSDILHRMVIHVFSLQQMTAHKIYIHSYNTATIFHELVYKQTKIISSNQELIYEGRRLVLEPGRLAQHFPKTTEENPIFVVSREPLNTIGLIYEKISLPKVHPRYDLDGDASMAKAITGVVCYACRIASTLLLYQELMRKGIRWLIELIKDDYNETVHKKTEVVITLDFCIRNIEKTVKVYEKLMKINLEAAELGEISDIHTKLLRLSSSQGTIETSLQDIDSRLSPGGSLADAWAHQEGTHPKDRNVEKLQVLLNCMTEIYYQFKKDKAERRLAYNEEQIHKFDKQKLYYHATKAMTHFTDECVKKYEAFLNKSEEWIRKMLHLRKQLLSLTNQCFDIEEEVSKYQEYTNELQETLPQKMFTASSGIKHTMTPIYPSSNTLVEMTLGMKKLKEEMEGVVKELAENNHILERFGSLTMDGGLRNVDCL
Conditions: Ki (VI16742), TBK1 IPI00293613.

Experiment [4] addresses cellular target proteins in HeLa cell lysate (Homo sapiens, UniProt Q15418). The note with it: Ki (VI16742), RSK3 (RPS6KA1) IPI00017305.
Experiment [5] deals with T2, cellular target proteins in HeLa cell lysate (Homo sapiens, UniProt P62258).
T2 sequence (P62258 1-255): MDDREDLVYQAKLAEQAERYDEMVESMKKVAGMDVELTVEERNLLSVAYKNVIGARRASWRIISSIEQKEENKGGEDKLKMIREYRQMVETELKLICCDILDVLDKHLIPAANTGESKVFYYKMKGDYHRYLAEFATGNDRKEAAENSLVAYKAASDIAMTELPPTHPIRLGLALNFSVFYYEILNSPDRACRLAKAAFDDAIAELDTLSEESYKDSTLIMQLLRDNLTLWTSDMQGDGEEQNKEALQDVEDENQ
The note with it: Ki (VI16742), YWHAE IPI00000816.

Molecules are shown by their SMILES.

For the compound `CC(C)n1c(=O)ccc2cnc(Nc3ccc(OCCN)cc3)nc21` [V16742], the Ki stood at 10.9 µM in experiment [1]; 49.3 µM in experiment [2]; 3.74 µM in experiment [3]; 19.2 µM in experiment [4]; 28.2 µM in experiment [5].
